Source: PubChem BioAssay
miR-21 reporter = raises the signal of a miR-21 reporter | HeLa miR-21 FLuc reporter, luciferase, 48 h | Potency, µM (doses to about 38.3 µM), without a hit: at the top dose reporter change, positive = more light | 340,000 tested, under 10 active | AID 2288; active = well fitted rising curve with a large enough effect; inconclusive = small, poorly fitted or top-dose-only effect; inactive = no such curve, though single readings can be large or run the other way;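 note: % of control where 0% means no effect; miR-21 action dims this reporter so a rising signal means less miR-21 action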
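HeLa cells endogenously expressing miR-21, stably carrying CMV-driven firefly luciferase with a downstream miR-21 binding site, 2000 cells/well. Titrations up to approximately 40 uM, 48 hours; luciferase luminescence read.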
Nrf2 block = Nrf2 pathway inhibition. A549 ARE-Fluc reporter, luciferase luminescence, 18-24 h. Potency, µM (titrated, usually from 46 µM), for inactives: at the highest dose activity change, negative = inhibition, actives largely listed as inhibitors. 360,000 compounds, 2.1% hits; also: potency is read from the fitted curve at half-maximal effect; % is scaled to controls: 0 for no effect and ±100 for the full control effect; nearly all actives have a fitted effect of over 60% in size
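Two sequential reads on A549 ARE_Fluc cells exposed to compound for 18-24 h: a CellTiter-Fluor fluorescence read for viability, then a luciferase luminescence read for Nrf2/ARE activity.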
Nrf2 ARE act = activators of Nrf2 (ARE) signaling | AREc32 ARE-luciferase reporter (MCF7-derived line), luminescence, 24 h | Potency, µM (doses to about 46.1 µM), for the others: at the highest dose activation, hits mostly activators | 410,000 compounds, 0.31% hits | AID 624171; also: potency is read from the fitted curve at half-maximal effect; % of control where 0% means no effect; nearly all actives have a fitted effect of over 65% in size
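Luciferase luminescence (Steady-Glo, 30 min at room temperature) served as the read-out of ARE activation in AREc32 cells treated with compounds for 24 hr at 37 deg C.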
A549 tox = A549 cytotoxicity, counter-screen for Nrf2 inhibitors; AID 504648; A549 ARE-Fluc cells, CellTiter-Fluor viability, 18-24 h; Potency, µM (highest dose often 46 µM), for the others: top-dose activity change, negative = cytotoxicity, most hits filed as inhibitors; 390,000 compounds, 0.16% hits; also: potency is read from the fitted curve at half-maximal effect; % is scaled to controls: 0 for no effect and ±100 for the full control effect
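A549 ARE_Fluc cells in 5% FBS OPTI-MEM were exposed to compounds in concentration-response for 18-24 h at 37 deg C. Viability was read by CellTiter-Fluor fluorescence (Ex 405/Em 525) after 30 min, before the luciferase read.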
B2AR arrestin = recruits beta-arrestin to the human beta2-adrenergic receptor | Potency, µM (series often up to 46.1 µM), inactives show top-dose activation, hits mostly activators | beta-arrestin recruitment to beta2AR, cell-based reporter | 330,000 compounds, 0.02% hits | P07550 | AID 492947;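 also: potency is read from the fitted curve at half-maximal effect; 0% = DMSO controls and full agonism = EC100 isoproterenol or metaproterenol; nearly all actives have a fitted effect of over 65% in size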
* hit, by the source's call; u = inconclusive; x = no result given. Shown are actives, neighbours in structure and some others; about 2.2% of the full set was active somewhere. Unless noted, calls follow the shape of the dose curve; as a rule, active = well fitted curve in the direction sought with a large enough effect; inconclusive = small, poorly fitted or top-dose-only effect, or another doubt; inactive = no such curve, though single readings can be large; an effect the other way counts as inactive or inconclusive.

Keys – A = miR-21 reporter; B = Nrf2 block; C = Nrf2 ARE act; D = A549 tox; E = B2AR arrestin
#1 CCN1C(=O)[C@H]2[C@@H](c3ccc(-c4ccccc4)cc3)N3CCC[C@@]3(C(=O)OC)[C@H]2C1=O
  A = x | B = 15µM* | C = 2% | D = -2% | E = -3%
#2 CCN1C(=O)[C@@H]2[C@@H](c3ccc(-c4ccccc4)cc3)N3CCC[C@@]3(C(=O)OC)[C@@H]2C1=O
  A = x | B = 4% | C = 0% | D = -6% | E = -1%
#3 COC(=O)C1=C(C)NC(=S)N(C(C)=O)C1c1ccc(OC)c(OC)c1 (centres undefined)
  A = -2% | B = 15µM* | C = 0% | D = -13% | E = 0%
#4 Cc1cc2c(s1)c1cnn(Cc3ccc(C(F)(F)F)cc3)c(=O)c1n2C
  A = x | B = 15% | C = x | D = -4% | E = x
#5 Fc1cccc(Cl)c1/C=C/c1cnc2ccccc2n1
  A = -55% | B = u | C = 3.5µM* | D = 2% | E = 0%
#6 CCC(C)NC(=O)c1cc2n(n1)CCCN(Cc1ccc(C)cc1)C2=O (centres undefined)
  A = 12% | B = x | C = 0% | D = 2% | E = x
#7 CCC(=O)N1CCc2cc(S(=O)(=O)CCC(=O)N3CCN(c4cccc(Cl)c4)CC3)ccc21
  A = 11% | B = 23µM* | C = 1% | D = -3% | E = x
#8 CC(=O)N1CCc2cc(S(=O)(=O)CCC(=O)N3CCN(c4cccc(C)c4C)CC3)ccc21
  A = 3% | B = u | C = 0% | D = -4% | E = x
#9 CC(=O)N1CCc2cc(S(=O)(=O)CCC(=O)N3CCN(c4cc(C)ccc4C)CC3)ccc21
  A = 1% | B = 15µM* | C = 0% | D = 0% | E = -1%
#10 CCC(=O)N1CCc2cc(S(=O)(=O)CCC(=O)N3CCN(c4ccc(Cl)cc4)CC3)ccc21
  A = 12% | B = 16µM* | C = 1% | D = 1% | E = 0%
#11 CCn1cc2nc(SCc3ccc(C)cc3)n(CCc3ccccc3)c(=O)c2n1
  A = 9% | B = 21µM* | C = -1% | D = u | E = x
#12 CCn1cc2nc(SCc3ccc(F)cc3)n(CCc3ccccc3)c(=O)c2n1
  A = 20% | B = u | C = 5% | D = 6% | E = x
#13 Cc1ccc(C2=Nc3ccccc3N(CC(=O)Nc3ccccc3F)C(=O)C2)cc1C
  A = 0% | B = 23% | C = 5% | D = -11% | E = x
#14 Cn1c(/C(C#N)=C(\O)c2ccccc2Cl)nc2ccccc21
  A = x | B = u | C = 13% | D = 2% | E = x
#15 CCN(CC)S(=O)(=O)c1ccc(C(O)=C(C#N)c2nc3ccccc3n2C)cc1
  A = x | B = 23µM* | C = -1% | D = -18% | E = x

Next part, starting with the last four of the part before.
Keys – A = miR-21 reporter; B = Nrf2 block; C = Nrf2 ARE act; D = A549 tox; E = B2AR arrestin
#12 CCn1cc2nc(SCc3ccc(F)cc3)n(CCc3ccccc3)c(=O)c2n1
  A = 20% | B = u | C = 5% | D = 6% | E = x
#13 Cc1ccc(C2=Nc3ccccc3N(CC(=O)Nc3ccccc3F)C(=O)C2)cc1C
  A = 0% | B = 23% | C = 5% | D = -11% | E = x
#14 Cn1c(/C(C#N)=C(\O)c2ccccc2Cl)nc2ccccc21
  A = x | B = u | C = 13% | D = 2% | E = x
#15 CCN(CC)S(=O)(=O)c1ccc(C(O)=C(C#N)c2nc3ccccc3n2C)cc1
  A = x | B = 23µM* | C = -1% | D = -18% | E = x
#16 Cc1cc(/C=C2\SC(=Nc3ccccc3)NC2=O)c(C)n1-c1ccc(S(N)(=O)=O)cc1
  A = 23% | B = x | C = 4% | D = 8.2µM* | E = 0%
#17 Cc1ccc(-n2c(C)cc(/C=C3\SC(=O)NC3=O)c2C)cc1
  A = -64% | B = u | C = 4% | D = -19% | E = 0%
#18 CC1CCN(C(=O)Cn2cc(SCc3ccccc3)c3ccccc32)CC1
  A = -17% | B = -12% | C = 1% | D = -2% | E = x
#19 CC(C)(C)OC(=O)N1CCC(C(=O)Nc2cccc(C(=O)NCCCc3ccccc3)c2)CC1
  A = x | B = 23µM* | C = 5% | D = -6% | E = x
#20 CC(C)(C)OC(=O)N(Cc1ccccc1)Cc1cccc(OCc2cccc(NC(=O)C3CC3)c2)c1
  A = x | B = 26µM* | C = 6% | D = -6% | E = x
#21 CC(C)(C)OC(=O)N(CCc1ccccc1)Cc1cccc(OCc2cccc(NC(=O)C3CCC3)c2)c1
  A = x | B = u | C = 4% | D = -3% | E = x
#22 O=S(=O)(O)c1cc(O)c2c(O)c(N=Nc3cc(Cl)ccc3O)c(S(=O)(=O)O)cc2c1
  A = 13% | B = 21µM* | C = -1% | D = 15µM* | E = 0%
#23 CC(C)(C)OC(=O)CC(=O)NNC(=O)c1cc2ccccc2[nH]1
  A = x | B = -15% | C = x | D = -6% | E = x
#24 COc1ccc(C2Nc3ccccc3C(=O)N2Cc2ccccc2)cc1COc1cccc(C)c1 (centres undefined)
  A = x | B = -21% | C = x | D = -3% | E = x
#25 Cc1ccc(N2CC(C(=O)Nc3nccs3)CC2=O)cc1Cl (centres undefined)
  A = 16% | B = u | C = -2% | D = 16µM* | E = -1%
#26 Cc1sc2nc(-c3ccncc3)[nH]c(=O)c2c1-c1ccccc1
  A = -8% | B = x | C = x | D = x | E = -1%
#27 Cc1sc2nc(-c3ccccn3)[nH]c(=O)c2c1-c1ccccc1
  A = -19% | B = 12µM* | C = 5% | D = -9% | E = 11%
#28 c1ccc(-c2nc(-c3ccco3)n3ccccc23)cc1
  A = 3% | B = 3% | C = 11µM* | D = 5% | E = -1%
#29 Cc1ccc(/C=C2\Sc3ccccc3C2=O)s1
  A = -17% | B = 16% | C = 11µM* | D = -12% | E = 0%
#30 CC(=O)Nc1ccc(/C=C2\Sc3ccccc3C2=O)cc1
  A = -7% | B = 9% | C = 5% | D = -3% | E = 0%
#31 Cc1cc2nc(-c3cccc(Br)c3)c(Cc3ccsc3)n2c(C)c1Br
  A = x | B = x | C = 28% | D = x | E = x
#32 Cc1cc2nc(-c3cccc(Br)c3)c(Cc3ccccc3)n2c(C)c1Br
  A = x | B = x | C = 11µM* | D = x | E = x
#33 O=S(=O)(C/C(=C/CO)S(=O)(=O)c1ccccc1)c1ccccc1
  A = u | B = u | C = u | D = 16µM* | E = -1%
#34 Cc1ccc(S(=O)(=O)N(CC(=O)Nc2c(C)cccc2C)c2cccc(Cl)c2)cc1
  A = 11% | B = u | C = 0% | D = -8% | E = x
#35 O=C1Cc2cc(S(=O)(=O)N3CCN(c4ccc([N+](=O)[O-])cc4)CC3)ccc2N1
  A = x | B = 31% | C = x | D = -4% | E = x
#36 Cc1noc(/C=C/c2ccco2)c1S(=O)(=O)N1CCC(C(=O)Nc2ccc(F)cc2F)CC1
  A = 3% | B = -2% | C = 0% | D = 2% | E = x
#37 O=C(Nc1ccc(F)cc1F)c1csc(-c2cccs2)n1
  A = -56% | B = u | C = 10µM* | D = -1% | E = 0%
#38 O=C(Nc1ccc(F)cc1F)c1cc(Cl)sc1Cl
  A = -36% | B = u | C = 14µM* | D = -8% | E = -1%
#39 Cc1ccc(-c2csc(NC(=O)CCNC(=O)c3ccccc3Cl)n2)cc1
  A = -2% | B = 23µM* | C = 7% | D = -6% | E = -1%
#40 Cc1ccc(-c2csc(NC(=O)CCNC(=O)c3ccc(Cl)cc3)n2)cc1
  A = 0% | B = 3% | C = 0% | D = -1% | E = -1%
#41 CN1C(=O)C2(OCC(COc3ccc(Cl)cc3)O2)c2ccccc21 (centres undefined)
  A = -1% | B = 18µM* | C = 1% | D = -10% | E = 0%
#42 O=C1Nc2ccccc2C12OCC(COc1ccc(Cl)cc1)O2 (centres undefined)
  A = -8% | B = u | C = 1% | D = -7% | E = 0%
#43 COc1ccc(NC(=O)Cn2cnc3ccc(S(=O)(=O)N4CCC(C)CC4)cc3c2=O)cc1Cl
  A = -9% | B = 0% | C = 0% | D = -1% | E = x
#44 COc1ccc(N(Cc2cccs2)C(=O)COc2cc(C)c(Cl)c(C)c2)cc1
  A = 8% | B = u | C = 0% | D = -1% | E = x
#45 COc1ccc(OC)c(C(=O)CC2OC(=O)c3ccccc32)c1 (centres undefined)
  A = 6% | B = -5% | C = 13µM* | D = -10% | E = -1%
#46 CC(=O)c1ccc(-c2ccc(-c3cc(=O)oc4c(C(C)C)ccc(C)c34)cc2)cc1
  A = x | B = 23µM* | C = 1% | D = 0% | E = 0%
#47 CCOc1ccc(N2CC(c3nc4ccccc4n3Cc3cccc(Cl)c3)CC2=O)cc1 (centres undefined)
  A = 11% | B = u | C = 0% | D = u | E = x
#48 CC1=C(C(=O)OCc2ccc3c(c2)OCO3)C(c2ccc(Cl)cc2)NC(=O)N1 (centres undefined)
  A = u | B = 7.3µM* | C = 0% | D = u | E = 0%
